The values that follow come from patent US11077128B2, “Selective inhibitors of Alpha2-containing isoforms of Na,K-ATPase and use thereof for reduction of intraocular pressure” (Yeda Research and Development Co. Ltd., priority 2015, dated 2021).

Each structure is given as a SMILES string.

Holding throughout (assay type): biochemical
Assay [1] deals with human Na,K-ATPase α2β3FXYD1.
The target in assay [2] is human Na,K-ATPase α2β1FXYD1 (Homo sapiens, UniProt P50993).
Assay [3] deals with human Na,K-ATPase α2β2FXYD1 (Homo sapiens (Human), UniProt P50993).

In the case of `CC1CN(CC2CC2)CCC(O[C@@H]2C(C)O[C@@H](OC3C(C)OC(O[C@H]4CC[C@@]5(C)C(CCC6C5CC[C@]5(C)[C@@H](C7=CC(=O)OC7)CC[C@]65O)C4)C[C@@H]3O)C[C@@H]2O)O1` (stereo in doubt) [DtxMcP, 4-((3S,5R,8R,9S,10S,13R,14S,17R)-3-(((2S,4S,5R,6R)-5-(((2S,4S,5S,6R)-5-((4-(cyclopropylmethyl)-2-methyl-1,4-oxazepan-7-yl)oxy)-4-hydroxy-6-methyltetrahydro-2H-pyran-2-yl)oxy)-4-hydroxy-6-methyltetrahydro-2H-pyran-2-yl)oxy)-14-hydroxy-10,13-dimethylhexadecahydro-1H-cyclopenta[a]phenanthren-17-yl)furan-2(5H)-one], the “Selectivity Ki ratio α1β1/α2β3” value in assay [1] turned out to be 6.7. Further, the “Selectivity Ki ratio α1β1/α2β1” value in assay [2] is 5.9. The “Selectivity Ki ratio α1β1/α2β2” value in assay [3] came out at 4.6.
For the molecule `CC1CN(C2CCC2)CCC(O[C@@H]2C(C)O[C@@H](OC3C(C)OC(O[C@H]4CC[C@@]5(C)C(CCC6C5CC[C@]5(C)[C@@H](C7=CC(=O)OC7)CC[C@]65O)C4)C[C@@H]3O)C[C@@H]2O)O1` (stereo in doubt) [DtxcB, 4-((3S,5R,8R,9S,10S,13R,14S,17R)-3-(((2S,4S,5R,6R)-5-(((2S,4S,5S,6R)-5-((4-cyclobutyl-2-methyl-1,4-oxazepan-7-yl)oxy)-4-hydroxy-6-methyltetrahydro-2H-pyran-2-yl)oxy)-4-hydroxy-6-methyltetrahydro-2H-pyran-2-yl)oxy)-14-hydroxy-10,13-dimethylhexadecahydro-1H-cyclopenta[a]phenanthren-17-yl)furan-2(5H)-one], in assay [1], the “Selectivity Ki ratio α1β1/α2β3” value is listed as 7.1. In addition, the “Selectivity Ki ratio α1β1/α2β1” value in assay [2] was 5.6. Moreover, the “Selectivity Ki ratio α1β1/α2β2” value in assay [3] stood at 5.8.
